The values below are quoted from earlier work in paper PMC7862202 (Clinical Pharmacokinetics, 2020).

The test system of the data set is patients with ALK + NSCLC who are ALK inhibitor naive. The settings on record: first interim analysis, blinded independent review committee; cited from earlier work.

Each structure is given as a SMILES string.

For the compound `C[C@@H](Oc1cc(-c2cnn(C3CCNCC3)c2)cnc1N)c1c(Cl)ccc(F)c1Cl` [crizotinib], the 12-month event-free rate is reported as 43%.
